The record followed here is patent US8674113B2, “Compounds” (Boehringer Ingelheim International GmbH, priority 2010, dated 2014).

Sequences of proteins named here, by UniProt entry; tags and fusion partners are left off. A change or cut given only in a name is not applied to a line headed by its entry.
UniProt O14684: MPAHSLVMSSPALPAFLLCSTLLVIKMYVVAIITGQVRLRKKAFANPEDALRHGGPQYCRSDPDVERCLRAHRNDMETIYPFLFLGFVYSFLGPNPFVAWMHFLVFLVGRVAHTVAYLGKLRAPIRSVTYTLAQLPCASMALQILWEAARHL

For assay [1], the target named is mPGES-1 in A549 cells (Homo sapiens (Human), UniProt O14684). Description: A549 cell-based assay (PGE2 formation, 50% human serum). The settings on record: IL-1β 5 ng/ml, 10 nM arachidonic acid, 20-24 h, read-out: mPGES-1 inhibitory effect IC50 in the cell assay. As for the experimental part:
Although the enzymatic assay is a high throughput assay the disadvantage is that it uses a recombinant protein which is not in its natural environment. Accordingly a cellular assay was established in which a cell line of human origin (A549) expressing the mPGES-1 protein was used. In addition in order to mimic the situation in humans in which compounds can be bound to plasma proteins 50% human serum is added in the assay. By having the combination of testing mPGES-1 in a cellular environment and the presence of 50% human serum this assay has a higher relevance to judge the therapeutic potential of a mPGES-inhibitor than the pure enzyme assay.
A549 cells (ATCC: CCL-185) are grown to about 90% confluence in F-12K Nutrient Mixture (Kaighn's Mod. Gibco) containing 10% FBS in a humified incubator at 37° C. and 5% CO2. Cells were detached using Trypsin-EDTA. A549 cells were seeded in a 384-well collagene plate at a density of 7000 cells/well (50 μl) in F-12 medium containing 1% Penicillin-Streptomycin and 50% human serum. The cells were allowed to attach for 3-4 h. […]
Concentrations of PGE2 in the cell free medium (10 μl) were measured using a commercially available HTRF kit from Cisbio (as described above). […]

Assay [2] addresses recombinant human mPGES-1 (Homo sapiens (Human), UniProt O14684). Description: mPGES-1 enzyme assay (HTRF detection of PGE2). The assay is classed as biochemical. The note with it: recombinant human mPGES-1 microsomes, PGH2 2 μM, 60 seconds; read-out: mPGES-1 inhibitory effect IC50 in the enzyme assay. As for the experimental part: Microsomes from Rosetta E. coli bacteria expressing recombinant human mPGES-1 can be derived as described below:
Inoculate 5 ml LB with Ampicilin (50 μg/ml) and Chloramphenicol (34 μg/ml) with bacteria from freeze culture. Incubate 8 h at 37° C. with 200 rpm. Thereafter, inoculate 500-1000 ml LB containing Amp and Chloro with the 5 ml on culture and grow to OD640 of 0.8-1.0. Chill the culture to +4° C. before induction. Induce the culture with IPTG at a final concentration of 400 μM. Express the protein at room temp 18-23° C. with 200 rpm shaking over night.
The following steps can be performed on the following day: • 1. […]
47 μl of recombinant human mPGES-1 (˜0.5 μg protein/well) containing microsomal suspension in a buffer containing GSH, (2.5 mmol/L L-Glutathione reduced, dissolved in 0.1 mol/L Phosphat Buffer pH 7.4) is dispensed in a 384-well plate and thereafter 1 μl of the test compound(s) is/are added and incubated for 25 minutes at room temperature. […] In order to quantify the amount of PGE2 that has been formed, a homogenous time resolved fluorescent (HTRF) detecting of PGE2 has been performed using a commercially available kit from Cisbio according to the manufactures recommendation. […] After an incubation period of the plates over night, the fluorescence is measured by the use of an appropriate microplate reader. […]

Structures are written as SMILES.

As for `Cn1c(Nc2c(Cl)ccc(CNC(=O)C(C)(C)C)c2Cl)nc2cc(C(=O)N[C@H]3CC[C@H](C(F)(F)F)CC3)c(N3CC(F)C3)cc21` [Example 97], the IC50 in assay [1] and in assay [2] was 3 nM throughout.
